Assay results published in article PMC9088825, “N ^α-arylsulfonyl histamines as selective β-glucosidase inhibitors” (RSC Advances, 2018).

The chains behind the UniProt entries cited, without tags or fusion partners. Residues count along the entry.
UniProt O42275, 24-633: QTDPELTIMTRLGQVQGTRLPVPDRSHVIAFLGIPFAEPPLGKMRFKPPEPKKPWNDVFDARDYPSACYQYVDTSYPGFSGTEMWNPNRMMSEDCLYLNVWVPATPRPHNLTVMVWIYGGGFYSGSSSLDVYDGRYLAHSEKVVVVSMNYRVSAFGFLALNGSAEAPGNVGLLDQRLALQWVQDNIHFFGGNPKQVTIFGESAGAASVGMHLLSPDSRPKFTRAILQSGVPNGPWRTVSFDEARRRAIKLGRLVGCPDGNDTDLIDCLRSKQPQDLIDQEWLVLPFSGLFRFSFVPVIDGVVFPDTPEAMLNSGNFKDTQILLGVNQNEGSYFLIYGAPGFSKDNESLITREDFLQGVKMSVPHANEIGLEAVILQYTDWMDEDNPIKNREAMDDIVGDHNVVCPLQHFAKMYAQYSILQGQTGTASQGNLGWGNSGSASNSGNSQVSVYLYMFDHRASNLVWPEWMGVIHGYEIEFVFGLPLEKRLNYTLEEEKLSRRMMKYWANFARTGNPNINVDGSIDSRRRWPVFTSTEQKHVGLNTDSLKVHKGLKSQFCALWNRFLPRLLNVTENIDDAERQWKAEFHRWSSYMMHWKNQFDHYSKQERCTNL

Molecular target: acetyl cholinesterase (AChE) (Electrophorus electricus, UniProt O42275)
Type: biochemical, electric eel
Conditions: read-out: IC50 (AChE), reference inhibitor
Protocol: AChE activity measurement was carried on based on Ellman's method.[46] […] The plate was shaken for 2 s and the increase in absorbance at 405 nm was monitored at 37 °C for 15 min.

Structure (SMILES): CNC(=O)Oc1ccc2c(c1)[C@]1(C)CCN(C)[C@@H]1N2C [eserine, reference compound]
- IC50: 1170 nM
